{"source": "patent US20140187771A1", "about": "“AMORPHOUS SOLID SALTS” (Gilead Sciences, Inc., priority 2011, published 2014)", "test": "Hygroscopicity at room temperature (weight gain and visual phase transition after 24 hours at controlled RH)", "assay_type": "physicochemical", "conditions": "55% RH", "description": "Hygroscopicity of salts of invention were measured by placing 20-50 mg of the sample in an uncapped scintillation vial. The vial was stored at ambient temperature in a Pyrex brand desiccator (VWR, International, CT). […] The relative humidity was confirmed using a digital hygrometer pen (VWR International, CT). An empty scintillation vial was also placed in the desiccator as a control. […] Visual observation of phase transition was also noted."}
{"substance": "nicotinate", "values": [{"measurement": "% weight gain", "result": 2.07, "unit": "%"}]}
